Test results reported in patent US11098288B2, “D-type amino acid dehydrogenase” (Kureha Corporation, priority 2017, dated 2021).

System: NADP^+
Experiment: purified protein, by the assay type
Settings: other: meso-diaminopimelic acid as substrate, 50° C., values for meso-diaminopimelic acid determined using NADP^+ as the coenzyme

## D-type amino acid dehydrogenase derived from T. lipolytica (Thermosyntropha lipolytica DSM 11003)
  Km: 828 µM
  kcat: 83 s⁻¹
  kcat/Km: 100000 M⁻¹ s⁻¹
